Laboratory results: patent US9346814B2

Amino acid sequences for entries named in this document (tags omitted). Residues count along the entry.
UniProt P97321, 26-761 limits assumed: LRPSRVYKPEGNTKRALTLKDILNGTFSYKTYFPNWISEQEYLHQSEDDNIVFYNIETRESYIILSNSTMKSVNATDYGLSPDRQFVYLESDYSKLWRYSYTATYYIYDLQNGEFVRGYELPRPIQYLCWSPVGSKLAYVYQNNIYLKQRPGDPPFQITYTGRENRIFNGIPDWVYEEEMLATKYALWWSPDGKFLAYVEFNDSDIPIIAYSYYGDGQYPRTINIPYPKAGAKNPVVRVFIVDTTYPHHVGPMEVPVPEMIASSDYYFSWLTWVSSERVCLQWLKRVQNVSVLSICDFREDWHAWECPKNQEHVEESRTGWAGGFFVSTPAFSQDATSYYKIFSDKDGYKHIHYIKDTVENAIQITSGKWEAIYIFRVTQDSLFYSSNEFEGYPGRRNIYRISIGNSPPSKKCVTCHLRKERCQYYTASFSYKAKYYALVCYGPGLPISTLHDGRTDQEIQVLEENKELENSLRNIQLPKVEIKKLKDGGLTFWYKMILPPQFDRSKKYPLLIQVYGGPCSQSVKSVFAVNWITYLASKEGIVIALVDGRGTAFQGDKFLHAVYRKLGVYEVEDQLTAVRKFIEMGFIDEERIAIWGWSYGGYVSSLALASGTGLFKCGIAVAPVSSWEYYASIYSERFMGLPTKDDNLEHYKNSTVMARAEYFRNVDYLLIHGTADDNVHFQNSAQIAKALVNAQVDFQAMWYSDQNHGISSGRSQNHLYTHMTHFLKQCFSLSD
UniProt P27487, whole entry: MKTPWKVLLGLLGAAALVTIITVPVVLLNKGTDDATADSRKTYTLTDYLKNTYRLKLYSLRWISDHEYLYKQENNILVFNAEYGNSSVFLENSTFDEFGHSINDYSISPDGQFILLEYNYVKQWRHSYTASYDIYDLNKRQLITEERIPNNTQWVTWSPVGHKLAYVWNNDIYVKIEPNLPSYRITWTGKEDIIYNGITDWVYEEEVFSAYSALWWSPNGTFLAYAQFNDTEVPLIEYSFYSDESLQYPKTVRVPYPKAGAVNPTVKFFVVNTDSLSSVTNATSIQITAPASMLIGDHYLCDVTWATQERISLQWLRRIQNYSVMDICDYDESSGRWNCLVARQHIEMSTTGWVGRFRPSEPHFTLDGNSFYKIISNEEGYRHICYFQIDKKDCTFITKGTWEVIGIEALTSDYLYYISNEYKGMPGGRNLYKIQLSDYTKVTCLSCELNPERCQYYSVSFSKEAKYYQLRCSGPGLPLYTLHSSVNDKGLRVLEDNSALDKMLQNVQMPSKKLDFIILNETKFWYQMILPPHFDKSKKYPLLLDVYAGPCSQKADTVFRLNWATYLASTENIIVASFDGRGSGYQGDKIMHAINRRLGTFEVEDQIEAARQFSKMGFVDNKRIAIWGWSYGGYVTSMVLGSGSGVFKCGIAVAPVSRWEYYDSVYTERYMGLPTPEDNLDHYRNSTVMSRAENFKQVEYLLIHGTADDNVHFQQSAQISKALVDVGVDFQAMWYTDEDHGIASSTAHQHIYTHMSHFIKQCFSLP

Key:
FAP = FAP (Mus musculus (Mouse), UniProt P97321); assay: FAP IC50, purified enzyme, substrate Ala-Pro-p-nitroanilide; type: biochemical, murine
DPP IV = DPP IV (Homo sapiens (Human), UniProt P27487); assay: DPP IV IC50, purified enzyme, substrate Gly-Pro-p-nitroanilide; type: biochemical; conditions: read-out: IC50 DPPIV
DPP9 = DPP9 IC50, purified enzyme, substrate Ala-Pro-p-nitroanilide; type: biochemical; conditions: read-out: IC50 DPP9

Row | Structure (SMILES) | IC50 (FAP; read-out: IC50 FAP) [µM] | IC50 (DPP IV) [µM] | IC50 (DPP9) [µM] | Selectivity index FAP/PREP (FAP)
1 | N#C[C@@H]1CCCN1C(=O)CNC(=O)c1ccnc2[nH]ccc12 | 0.04 | > 100 | > 100 | –
2 | N#C[C@@H]1CCCN1C(=O)CNC(=O)c1c[nH]c2ccccc12 | – | – | > 25 | –
3 | N#C[C@@H]1CCCN1C(=O)CNC(=O)c1cccc2ccccc12 | – | – | > 100 | –
4 | N#C[C@@H]1CCCN1C(=O)CNC(=O)c1cc2ccccc2[nH]1 | – | – | > 100 | > 7
